Measurements reported in patent publication US20230233555A1 (AbbVie Inc., priority 2022, published 2023).

Test system: bacteria
Details: in vitro

CC[C@@H]1CN(C(=O)NCC(F)(F)F)C[C@@H]1c1cnc2cnc3[nH]ccc3n12 [upadacitinib, (3S,4R)-3-Ethyl-4-(3H-imidazo[1,2-a]pyrrolo[2,3-e]pyrazin-8-yl)-N-(2,2,2-trifluoroethyl)pyrrolidine-1-carboxamide hydrate (2:1)]
Genotoxicity, bacterial mutagenicity (Ames): tested negatively
